Assay results published in PMC5084075 (ACS Central Science, 2016).

Target: T1, PfDHODH (Plasmodium falciparum, UniProt Q08210)
T1 sequence (Q08210 1-569): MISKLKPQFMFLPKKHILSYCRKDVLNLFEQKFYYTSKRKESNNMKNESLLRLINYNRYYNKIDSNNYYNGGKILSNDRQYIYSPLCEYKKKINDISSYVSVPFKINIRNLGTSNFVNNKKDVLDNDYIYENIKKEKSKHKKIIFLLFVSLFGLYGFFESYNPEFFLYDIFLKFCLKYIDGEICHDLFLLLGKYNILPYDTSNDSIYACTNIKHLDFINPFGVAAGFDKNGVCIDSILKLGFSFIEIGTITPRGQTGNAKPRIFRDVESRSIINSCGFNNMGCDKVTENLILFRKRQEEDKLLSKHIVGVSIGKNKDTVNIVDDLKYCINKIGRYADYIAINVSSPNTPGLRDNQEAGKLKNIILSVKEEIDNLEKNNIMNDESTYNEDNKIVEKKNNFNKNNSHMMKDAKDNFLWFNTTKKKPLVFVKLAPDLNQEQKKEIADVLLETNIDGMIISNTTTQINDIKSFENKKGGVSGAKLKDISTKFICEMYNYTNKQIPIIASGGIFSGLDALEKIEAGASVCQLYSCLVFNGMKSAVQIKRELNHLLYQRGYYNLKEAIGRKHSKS
Assay: biochemical
Parameters: PfDHODH enzyme inhibition IC50
Settings: read-out: >50

IC50: 5 nM
Compound: Cc1cc(Nc2ccc3ccccc3c2)n2ncnc2n1 [TCMDC-125840]
